Results reported in ChEMBL document CHEMBL5321206, “New amidine-benzenesulfonamides as iNOS inhibitors for the therapy of the triple negative breast cancer” (Eur J Med Chem, 2023).

Test: Selectivity ratio of IC50 for inhibition of full length N-terminal his-tagged bovine eNOS (2 to 1205 residues) expressed in Escherichia coli to IC50 for inhibition of N-terminal his6-tagged recombinant human iNOS expressed in Escherichia coli

Compound `N=C(NCc1ccc(NS(=O)(=O)c2ccc([N+](=O)[O-])cc2)cc1)c1ccccc1` has a Ratio IC50 of over 60.

For `Br.Cc1ccc(S(=O)(=O)NCc2cccc(CNC(=N)c3ccccc3)c2)cc1`, the Ratio IC50 was over 770.
